Results as given in PMC8041433 (Environmental Health Perspectives, 2021).
Where “and” joins values, the source holds several entries; their conditions need not be identical. Equal entries are not always repeated. Structures can show the parent of a compound that is named as a salt. Where two headings read alike, the source gives them in different places.

Sequences of proteins named here, by UniProt entry; tags and fusion partners are left off. Residues count along the entry.
UniProt P22303, 32-614: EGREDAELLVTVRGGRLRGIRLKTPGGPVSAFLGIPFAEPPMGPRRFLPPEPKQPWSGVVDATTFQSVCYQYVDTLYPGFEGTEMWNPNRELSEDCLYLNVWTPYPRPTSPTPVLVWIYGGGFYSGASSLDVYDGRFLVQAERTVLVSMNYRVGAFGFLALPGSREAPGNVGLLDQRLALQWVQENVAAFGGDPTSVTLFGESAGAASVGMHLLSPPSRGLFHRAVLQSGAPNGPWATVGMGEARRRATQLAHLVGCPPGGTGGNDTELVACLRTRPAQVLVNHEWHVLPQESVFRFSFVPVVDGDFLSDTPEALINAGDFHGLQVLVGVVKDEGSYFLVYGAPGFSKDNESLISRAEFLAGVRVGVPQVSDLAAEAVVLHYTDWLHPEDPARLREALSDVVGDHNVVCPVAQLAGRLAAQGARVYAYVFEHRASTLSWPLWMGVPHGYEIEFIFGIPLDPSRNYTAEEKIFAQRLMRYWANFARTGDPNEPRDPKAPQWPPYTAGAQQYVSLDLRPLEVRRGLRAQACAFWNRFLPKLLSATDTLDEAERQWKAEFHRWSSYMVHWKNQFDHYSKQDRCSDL

What was measured:
[1] = molecular target: AChE in SH-SY5Y cells (Homo sapiens, UniProt P22303); assay: cell-based
[2] = molecular target: T1, recombinant human AChE (Homo sapiens, UniProt P22303); on IR or R: key: Reversible (R); Irreversible (IR); ND, not detected in enzyme-based AChE inhibition assay from current study
[3] = molecular target: AChE in neural stem cells (Homo sapiens, UniProt P22303); assay: cell-based; settings: for AC50: AC50 (uM)
[4] = molecular target: T1, recombinant human AChE; assay: biochemical; type: biochemical; settings: for AC50: AC50 (uM)
[5] = molecular target: T1, recombinant human AChE; assay: biochemical
[6] = molecular target: T1, recombinant human AChE; assay: biochemical; remark: listed apart in the source
[7] = molecular target: AChE in neural stem cell spheroids (Homo sapiens, UniProt P22303); assay: cell-based; settings: for IC50: potency (IC50)
[8] = molecular target: AChE in SH-SY5Y spheroids (Homo sapiens, UniProt P22303); assay: cell-based; settings: for IC50: potency (IC50)
[9] = molecular target: T1, recombinant human AChE; assay: biochemical; remark: listed apart in the source
[10] = potency (IC50), SH-SY5Y cells monolayer
[11] = Neural stem cell spheroid (24 h)
[12] = Neural stem cell spheroid (48 h)
[13] = potency (IC50), Enzyme with microsomes

Compound	CC-v2 (curve classes) [1]	IC50 ([1]; IC50 (uM))	CC-v2 (curve classes) [2]	IC50 [3] [µM]	AC50 [4]	IC50 ([5]; IC50 (uM))	CC-v2 (curve classes) [6]	IC50 ([6]; IC50 (uM))	IR or R [4]	IC50 [1, 10] [µM]	IC50 [7, 11] [µM]	IC50 [7, 12] [µM]	IC50 ([8]; SH-SY5Y spheroids (24 h)) [µM]	IC50 ([8]; SH-SY5Y spheroids (48 h)) [µM]	IC50 [5, 13] [µM]	IC50 ([6]; potency (IC50), Enzyme) [µM]	IC50 [9] [µM]	other results
Cl.Nc1c2ccccc2nc2ccccc12.O	-1.1	0.871 µM and 0.701 µM and 0.556 µM and 0.692 µM and 0.786 µM and 0.245 µM and 0.624 µM	-2.1 and -1.1	0.598	2.17 µM (2×) and 2.73 µM and 769 nM and 1.53 µM and 1.72 µM and 863 nM and 968 nM and 2.43 µM	15.5 µM and 7.01 µM and 7.86 µM	-1.1	0.776 µM and 1.11 µM and 1.4 µM	–	–	–	–	–	–	–	–	–	CC-v1 [3]: -1.1; CC-v2 [3]: -1.1; Efficacy [3]: -93.475; Hill Coef [3]: 1.1; Max Resp [3]: -87.315; AC50 [3]: 0.485 µM
[Cl-].c1ccc(C[n+]2cccc3ccccc32)cc1 [1-Benzylquinolinium chloride]	-1.1	–	-2.2	–	25 µM and 17.7 µM (2×) and 28 µM and 15.7 µM and 22.2 µM and 19.8 µM and 14 µM	–	-2.1	–	R	–	–	–	–	–	–	–	–	CC-v2 (curve class) [1]: -2.1; AC50 ([1]; AC50): 14 µM and 17.7 µM; Efficacy [2]: -50.659; Hill Coef [7]: 4.449 and 2.406 and 3.929 and 2.638; AC50 ([7]; AC50 (uM)): 39.5 µM (2×) and 35.2 µM; CC-v1 [3]: -2.2; CC-v2 [3]: -2.2; Hill Coef [3]: 1.416 and 1 and 1.344; AC50 [3]: 44.4 µM and 28 µM and 17.7 µM; CC-v2 [8]: -1.2 and -1.1 and -2.1; Hill Coef [8]: 2.333 and 2.121 and 1.788 and 1.416; AC50 ([8]; AC50 (uM)): 9.93 µM and 12.5 µM (2×); AC50 [6]: 6.27 µM; CC-v2 (curve class) [6]: -2.1; Max Resp [6]: -82.401
Nc1c2ccccc2nc2ccccc12 [9-Aminoacridine, reference compound]	–	–	–	–	–	–	–	–	R	0.97 ± 0.11	0.06	0.12 ± 0.05	0.53 ± 0.4	1.05 ± 0.07	4.87 ± 0.56	1.17 ± 0.16	4.68 ± 0.3	–
CNC(=O)O/N=C/C(C)(C)SC [Aldicarb]	-1.1	5.64 µM and 6.39 µM and 5.02 µM	-2.1	7.31 ± 0.49	22.2 µM and 35.2 µM and 44.4 µM and 28 µM and 5.59 µM and 8.85 µM and 11.1 µM	31.7 µM and 40.3 µM	-1.1	11.2 µM and 18 µM	–	10.7 ± 0.69	5.04 ± 0.94	8 ± 5.23	15.6 ± 6.69	10.3 ± 0.7	9.57 ± 0.62	9.25 ± 1.17	14.7 ± 1.87	reversibility of AChE inhibition (result in words) [4]: significant IC50 difference at 60 min; IC50 ([6]; IC50): 8.89 µM
CNC(=O)O/N=C/C(C)(C)S(C)(=O)=O [Aldoxycarb]	–	11.2 µM and 17.9 µM and 22.4 µM and 20 µM and 20.1 µM	–	9.57 ± 0.62	35.2 µM and 49.8 µM (2×) and 44.4 µM (2×) and 15.7 µM and 12.5 µM	63.2 µM and 80 µM	–	22.4 µM and 35.7 µM	–	15.2 ± 2.09	7.91 ± 4.02	10.1	13.9 ± 6.95	19.1 ± 1.24	23.1 ± 1.56	18.4 ± 1.24	26 ± 1.76	–
COc1ccc2cc3[n+](cc2c1OC)CCc1cc2c(cc1-3)OCO2 [Berberine]	-1.1	2.45 µM and 1.38 µM	-2.1	–	2.17 µM and 3.43 µM (3×) and 3.06 µM and 1.72 µM and 4.32 µM	24.5 µM	-1.1	3.47 µM	R	1.42 ± 0.09	5.29 ± 0.9	11 ± 2.05	1.23 ± 0.69	2.89 ± 0.65	10.9 ± 1.25	2.38 ± 0.59	–	Efficacy [2]: -74.661; IC50 ([3]; read-out: potency (IC50), Neural stem cells monolayer): 7.41 ± 0.48 µM; Efficacy [6]: -87.809; IC50 ([9]; read-out: potency (IC50), Enzyme-based assay with heat-inactivated microsomes): 7.47 ± 1.27 µM
CCOP(=O)(OCC)OC(=CCl)c1ccc(Cl)cc1Cl [Chlorfenvinphos]	–	2.52 µM and 1.78 µM	–	0.2 ± 0.07	15.3 µM and 13.7 µM (2×) and 17.2 µM and 9.68 µM and 6.11 µM and 8.63 µM	7.1 µM	–	2 µM	–	1.95 ± 0.41	0.03 ± 0.02	0.04 ± 0.01	1.55 ± 1.11	1.53	11.3 ± 0.76	9.72 ± 1.11	7.16 ± 0.91	–
Oc1c(Cl)cc(Cl)c(Cl)c1Cc1c(O)c(Cl)cc(Cl)c1Cl [Hexachlorophene, reference compound]	–	89.4 µM and 89.1 µM and 79.4 µM	4	–	8.63 µM and 12.2 µM (2×) and 9.68 µM and 13.7 µM and 10.9 µM and 27.3 µM and 30.6 µM	–	-1.1	9.77 µM and 10 µM and 15.9 µM and 11.2 µM	R	–	–	–	–	–	–	14.9	–	potency (IC50), SH-SY5Y cells monolayer [1]: Inactive; potency (IC50), Enzyme with microsomes [2]: Inactive; potency (IC50), Neural stem cell spheroid (24 h) [7]: Inactive; potency (IC50), Neural stem cell spheroid (48 h) [7]: Inactive; potency (IC50), Neural stem cells monolayer [3]: Inactive; potency (IC50), SH-SY5Y spheroids (24 h) [8]: Inactive; potency (IC50), SH-SY5Y spheroids (48 h) [8]: Inactive; potency (IC50), Enzyme-based assay with heat-inactivated microsomes [9]: Inactive
CN(C)c1ccc2nc3ccc(=[N+](C)C)cc-3sc2c1 [Methylene blue, reference compound]	-1.1	1.12 µM and 1.1 µM and 0.796 µM and 0.977 µM and 0.71 µM	-1.1	–	21.7 µM (3×) and 19.3 µM	6.33 µM	-1.1	2 µM and 2.45 µM	R	2.44 ± 0.28	13.7 ± 1.57	16.6	9.19 ± 7.13	7.13 ± 0.48	17.5 ± 4	3.43	15.1 ± 3.76	–
CO[C@]12C[C@@H](COC(=O)c3cncc(Br)c3)CN(C)[C@@H]1Cc1cn(C)c3cccc2c13 [Nicergoline, reference compound]	-1.1	3.09 µM and 6.92 µM and 3.47 µM	-2.1	16.6 ± 1.08	–	27.5 µM	-1.1	6.17 µM	R	6.13 ± 0.7	16.1 ± 2.89	16.4	3.88 ± 3.28	2.98 ± 0.51	13.7 ± 1.57	8.07 ± 1.45	13.9 ± 3.18	Efficacy [2]: -84.711; Efficacy [6]: -101.908
CCCCCCCCCCC[C@@H](C[C@@H]1OC(=O)[C@H]1CCCCCC)OC(=O)[C@H](CC(C)C)NC=O [Orlistat, reference compound]	-1.2	6.17 µM and 2.45 µM and 3.47 µM	–	3.44	–	–	-1.1	3.47 µM	R	4.91	3.9	2.36	9.46	8.82	–	1.59	19.4 ± 2.23	reversibility of AChE inhibition (result in words) [4]: reversible; Efficacy [6]: -81.515
CCN(CC)CCCC(C)Nc1c2ccc(Cl)cc2nc2ccc(OC)cc12 (stereo not shown) [Quinacrine, reference compound]	–	–	–	10.1 ± 0.68	–	–	–	–	R	3.44 ± 0.39	–	–	6.03 ± 2.86	4.19 ± 0.58	12.5 ± 4.9	5.46 ± 1.79	11.8 ± 2.02	potency (IC50), Neural stem cell spheroid (24 h) [7]: Inactive; potency (IC50), Neural stem cell spheroid (48 h) [7]: Inactive
COc1cc(C(=O)NCc2ccc(OCCN(C)C)cc2)cc(OC)c1OC [Trimethobenzamide hydrochloride]	–	8.71 µM and 6.92 µM	–	–	–	–	–	15.5 µM	–	–	–	–	–	–	–	–	–	–
COc1cc(C(=O)NCc2ccc(OCCN(C)C)cc2)cc(OC)c1OC [Trimethobenzamide·HCl, reference compound]	–	–	–	10.6 ± 4.17	15.3 µM (3×) and 19.3 µM (3×) and 17.2 µM and 21.7 µM	–	–	–	R	10.2 ± 2.31	–	20.8	7.56 ± 1.83	12.7 ± 0.86	21.8 ± 2.5	13.2 ± 1.82	21.7	potency (IC50), Neural stem cell spheroid (24 h) [7]: Inactive
O=C(CCC1CCN(Cc2ccccc2)CC1)c1ccc2c(c1)NCCCC2.O=C(O)/C=C/C(=O)O [Zanapezil fumerate, reference compound]	–	0.245 µM	–	3.56 ± 2.2	343 nM and 769 nM and 968 nM (2×) and 611 nM and 685 nM (2×) and 544 nM and 863 nM	3.09 µM	–	1.74 µM	–	0.24	5.91 ± 0.81	8.78 ± 2.01	0.15 ± 0.09	0.13 ± 0.02	0.56 ± 0.03	0.68 ± 0.07	0.87 ± 0.1	–
CNC(=O)Oc1cccc(C(C)C)c1 [m-Cumenyl methylcarbamate]	-1.1	–	-2.2	–	–	–	-1.1	–	–	–	–	–	–	–	–	–	–	Efficacy [2]: -59.77; Efficacy [6]: -86.828
